# Test results published in PubChem BioAssay AID602363 (Broad Institute, 2012).
# In all, about 350,000 compounds went through this assay and about 450 (0.13%) were called active. The sample as a whole holds a higher share of actives than the screen did. Unmarked numbers belong to inactive results.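 Rule for the calls: active = replicate mean at a twofold rise or more (about +100% in these data); inactive = the rest.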
# Assay: UUG initiation codon usage in yeast – whole organism, S. cerevisiae, single point, plate reader, primary screen (AID 602363);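 note: firefly luciferase made from a UUG start codon reports start codon fidelity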
# Conditions: S. cerevisiae UUG-firefly luciferase reporter, luminescence/redox ratio; at 18.7 µM; active compounds read high
row,SMILES,activity score
1,C[C@H](CO)N1C[C@H](C)[C@H](CN(C)C(=O)Nc2cccc3ccccc23)Oc2ncc(C#Cc3ccccc3)cc2C1=O,-10%
2,Cc1ccccc1S(=O)(=O)N1[C@H](C#N)[C@H](c2ccccc2)[C@H]1CO,-7.59%
3,C[C@H](CO)N1C[C@H](C)[C@H](CN(C)S(=O)(=O)c2cccs2)Oc2ccc(NS(=O)(=O)c3ccc(Cl)cc3)cc2CC1=O,3.99%
4,COc1ccc(CN(C)C[C@H]2OCCCC[C@H](C)Oc3ccc(NC(=O)Nc4ccc5c(c4)OCO5)cc3C(=O)N([C@H](C)CO)C[C@@H]2C)cc1,0.433%
5,C[C@H](CO)N1C[C@H](C)[C@H](CN(C)S(=O)(=O)c2cccs2)Oc2c(NC(=O)Nc3ccc4c(c3)OCO4)cccc2C1=O,6.62%
6,O=C(C[C@H]1C[C@H]2c3cc(NC(=O)NC4CCCC4)ccc3O[C@H]2[C@H](CO)O1)NCCc1ccccc1,-18.1%
7,C[C@@H]1CN([C@H](C)CO)C(=O)c2cc(NS(=O)(=O)c3ccccc3)ccc2O[C@@H](C)CCCCO[C@H]1CN(C)C(=O)C1CCCCC1,18.3%
8,CCC(=O)N1[C@@H](CO)[C@H](c2ccc(-c3cccc(F)c3)cc2)[C@@H]1CNC(C)=O,2%
9,C[C@H](CO)N1C[C@H](C)[C@@H](CN(C)S(=O)(=O)c2cccs2)Oc2ccc(NC(=O)Nc3cccc4ccccc34)cc2CC1=O,-2.1%
10,C[C@@H]1CN([C@H](C)CO)C(=O)c2cccc(NC(=O)Nc3ccccc3)c2O[C@H]1CN(C)S(C)(=O)=O,1.91%
11,C[C@@H]1CN([C@H](C)CO)C(=O)c2cc(NS(=O)(=O)c3ccc(F)cc3)ccc2O[C@H]1CN(C)C(=O)Nc1cccc2ccccc12,-5.16%
12,CCC(=O)N(C)C[C@H]1Oc2cc(C#CC3CCCC3)ccc2S(=O)(=O)N([C@H](C)CO)C[C@@H]1C,-3%
13,COc1ccccc1-c1cn(CC[C@H]2CC[C@@H](NC(=O)CCN3CCCCC3)[C@@H](CO)O2)nn1,7.11%
14,O=C(Cc1ccccn1)NCC[C@H]1CC[C@H](NS(=O)(=O)c2ccccc2)[C@@H](CO)O1,7.13%
15,COc1cccc(S(=O)(=O)Nc2ccc3c(c2)C(=O)N(C)C[C@@H](OC)[C@H](C)CN(C(=O)Cc2cccnc2)[C@H](C)CO3)c1,-4.59%
16,O=C1N=C(N2CCc3ccccc3C2)S/C1=C\c1ccc(O)cc1,376% (active)
17,O=C1N=C(N2CCOCC2)S/C1=C\C=C/c1ccccc1,-1.22%
18,CCOc1cc(/C=C2\SC(N3CCCCC3)=NC2=O)ccc1O,6.38%
19,Cc1c(NC(=O)c2c([N+](=O)[O-])cnn2C)c(=O)n(-c2ccccc2)n1C,-20.3%
20,Cc1c(Nc2cc(N3CCCC(C)C3)c3nonc3c2[N+](=O)[O-])c(=O)n(-c2ccccc2)n1C (centres undefined),273% (active)
21,Cc1cc(C)c(S(=O)(=O)Nc2c(C)n(C)n(-c3ccccc3)c2=O)cc1[N+](=O)[O-],3.79%
22,CC1CCCN(S(=O)(=O)c2ccc(N(C(=O)c3cnccn3)C(C(=O)NC3CCCCC3)c3cccs3)cc2)C1 (centres undefined),130% (active)
23,O=C(NC1CCCCC1)C1CCCN(S(=O)(=O)c2cccs2)C1 (centres undefined),-10.8%

row,SMILES,activity score
1,CCc1ccc(N(C(=O)c2csnn2)C(C(=O)NC2CCCCC2)c2ccncc2)cc1 (centres undefined),-16.9%
2,O=C(C[C@@H]1C[C@H]2c3cc(NC(=O)NC4CCCCC4)ccc3O[C@H]2[C@H](CO)O1)NCc1ccncc1,1.45%
3,CCCN1C[C@H](C)[C@H](OC)CN(C)C(=O)c2cc(NC(=O)C3CCOCC3)ccc2OC[C@@H]1C,7.64%
4,C[C@H](CO)N1C[C@H](C)[C@@H](CN(C)Cc2ccc(Cl)c(Cl)c2)Oc2ccc(NC(=O)Nc3ccc(C(F)(F)F)cc3)cc2CC1=O,-6.41%
5,COc1ccc(S(=O)(=O)N(C)C[C@@H]2OCCCC[C@@H](C)Oc3ccc(NC(=O)c4ccccc4)cc3C(=O)N([C@@H](C)CO)C[C@H]2C)cc1,-7.34%
6,CO[C@H]1CN(C)C(=O)c2cc(NC(=O)Nc3cccc(F)c3)ccc2OC[C@H](C)N(C(C)=O)C[C@H]1C,2.41%
7,CCCc1cn(CC[C@@H]2CC[C@@H](NS(=O)(=O)c3ccccc3Cl)[C@@H](CO)O2)nn1,-13.1%
8,CN1C[C@@H]2[C@H](c3ccccc31)[C@@H](CO)N2C(=O)Nc1ccccc1,-3.49%
9,C[C@@H]1CN([C@H](C)CO)C(=O)c2cc(NC(=O)c3ccncc3)ccc2O[C@H]1CN(C)C(=O)Nc1ccc(C(F)(F)F)cc1,-1.07%
10,CCC(=O)N1C[C@@H](C)[C@H](OC)CN(C)C(=O)c2ccc(NC(=O)Nc3ccccc3)cc2OC[C@@H]1C,40.8%
11,C[C@H]1CCCCO[C@H](CN(C)C(=O)NC2CCCCC2)[C@@H](C)CN([C@@H](C)CO)C(=O)c2cc(NC(=O)Nc3ccc4c(c3)OCO4)ccc2O1,-4.52%
12,C[C@H]1CCCCO[C@H](CN(C)Cc2ccc(C(F)(F)F)cc2)[C@@H](C)CN([C@@H](C)CO)C(=O)c2cc(NC(=O)C3CCCCC3)ccc2O1,13.7%
13,CC1CCC(NC(=O)C2c3ccccc3C(=O)N2Cc2ccc3c(c2)OCO3)CC1 (centres undefined),619% (active)
14,CCc1ccc(CN2C(=O)c3ccccc3C2C(=O)NCC2CCCO2)cc1 (centres undefined),-17.4%
15,O=C(Nc1ccc(Cl)cc1)C1c2cccc[n+]2CC(=O)N1Cc1ccc2c(c1)OCO2 (centres undefined),-9.17%
16,COc1ccc(S(=O)(=O)Nc2ccc3c(c2)CC(=O)N([C@H](C)CO)C[C@@H](C)[C@H](CN(C)S(=O)(=O)c2c(C)noc2C)O3)cc1,-0.184%
17,N#C[C@@H]1[C@H](c2ccc(C#Cc3cccc(F)c3)cc2)[C@@H](CO)N1C(=O)C1CCCC1,-38.1%
18,CN(C)CC(=O)N[C@@H]1CC[C@H](CC(=O)NCc2ccc(Cl)cc2)O[C@H]1CO,-7.2%
19,O=C(NCC[C@@H]1CC[C@H](NC(=O)C2CC2)[C@@H](CO)O1)c1cc(Cl)cc(Cl)c1,4.52%
20,C[C@@H]1CN([C@H](C)CO)C(=O)c2cc(-c3ccc(C#N)cc3)cnc2O[C@@H]1CN(C)CC1CC1,-0.028%
21,CO[C@H]1CN(C)C(=O)c2cc(NS(C)(=O)=O)ccc2OC[C@@H](C)N(Cc2ccccc2)C[C@@H]1C,1.29%
22,CC(=O)Nc1ccccc1-c1cn(CC(=O)N2CCOCC2)nn1,127% (active)
23,CCOC(=O)c1ccccc1NC(=O)COC(=O)CCC(=O)N1CCOCC1,19.5%

row,SMILES,activity score
1,CC(=O)Nc1ccccc1OC(=O)N1CCOCC1,-18.2%
2,C[C@H](CO)N1C[C@H](C)[C@H](CN(C)Cc2ccc(Cl)c(Cl)c2)OCCCC[C@H](C)Oc2ccc(NC(=O)NC3CCCCC3)cc2C1=O,-1.13%
3,Cc1ccccc1OC(=O)Cn1c(C(F)(F)F)nc2ccccc21,-13%
4,CCOCN(C(=O)Cn1c(C(C)O)nc2ccccc21)c1c(C)cccc1CC (centres undefined),-13.4%
5,CCc1cccc(C)c1N(C(=O)Cn1c(CO)nc2ccccc21)C(C)COC (centres undefined),593% (active)
6,O=C(COc1ccc(Cl)cc1)NCc1nnc(SCC(=O)NCC2CCCO2)o1 (centres undefined),199% (active)
7,COc1cc(C(=O)NCc2nnc(SCC(=O)c3ccc(Cl)cc3)o2)cc(OC)c1OC,-3.27%
8,COc1ccc2c(C)cc(SCC(=O)NCC3CCCO3)nc2c1 (centres undefined),-4.78%
9,O=S(=O)(N[C@@H]1CC[C@@H](CCn2cc(-c3ccccn3)nn2)O[C@@H]1CO)c1cccc(Cl)c1,-16.7%
10,C[C@@H]1CN([C@@H](C)CO)C(=O)c2cccc(NC(=O)Nc3ccc4c(c3)OCO4)c2O[C@@H]1CN(C)C(=O)Nc1ccc(F)cc1,-5.75%
11,CS(=O)(=O)Nc1ccc2c(c1)[C@H]1C[C@@H](CC(=O)N3CCOCC3)O[C@@H](CO)[C@H]1O2,-23.5%
12,C[C@H](CO)N1C[C@H](C)[C@@H](CN(C)S(C)(=O)=O)Oc2cc(C#CC3CC3)ccc2S1(=O)=O,13.1%
13,O=C(NC(=S)Nc1ccccc1N1CCCCC1)c1ccc(F)cc1,-15.2%
14,O=C(Nc1ccccc1N1CCCC1)c1ccc2ccccc2c1,-12.9%
15,c1ccc(-n2cccc2)c(N2CCCCC2)c1,101% (active)
16,C[C@@H]1CCCCO[C@H](CN(C)Cc2ccccc2)[C@@H](C)CN([C@@H](C)CO)C(=O)c2cc(NC(=O)Nc3ccc(F)cc3)ccc2O1,33.7%
17,C[C@H](CO)N1C[C@H](C)[C@@H](CN(C)C)Oc2c(NC(=O)Nc3ccc(F)cc3)cccc2C1=O,17.5%
18,CC(C)C#Cc1ccc2c(c1)O[C@H](CN(C)Cc1ccccn1)[C@H](C)CN([C@H](C)CO)S2(=O)=O,-7.68%
19,CO[C@H]1CN(C)C(=O)c2cc(NC(=O)C3CCCCC3)ccc2OC[C@H](C)N(C(=O)c2ccccc2)C[C@H]1C,-6.56%
20,C[C@H](CO)N1C[C@H](C)[C@H](CN(C)S(=O)(=O)c2cn(C)cn2)Oc2c(NC(=O)C3CCOCC3)cccc2C1=O,-12.8%
21,COc1ccc(NC(=O)N(C)C[C@H]2OCCCC[C@@H](C)Oc3ccc(NC(=O)NC4CCCCC4)cc3C(=O)N([C@H](C)CO)C[C@H]2C)cc1,21.6%
22,COc1ccc(NC(=O)N(C)C[C@H]2OCCCC[C@@H](C)Oc3ccc(NC(=O)NC4CCCCC4)cc3C(=O)N([C@@H](C)CO)C[C@H]2C)cc1,107% (active)
23,COc1ccc(NC(=O)N(C)C[C@@H]2OCCCC[C@@H](C)Oc3ccc(NC(=O)NC4CCCCC4)cc3C(=O)N([C@H](C)CO)C[C@@H]2C)cc1,2.02%
